The text below walks through data of patent US20240082406A1, “BENZOHETEROCYCLE SUBSTITUTED TETRAHYDROISOQUINOLINE COMPOUND” (SHANGHAI JEMINCARE PHARMACEUTICAL CO., LTD, priority 2020, published 2024).

Sequences of proteins named here, by UniProt entry; tags and fusion partners are left off.
UniProt P48764, whole entry: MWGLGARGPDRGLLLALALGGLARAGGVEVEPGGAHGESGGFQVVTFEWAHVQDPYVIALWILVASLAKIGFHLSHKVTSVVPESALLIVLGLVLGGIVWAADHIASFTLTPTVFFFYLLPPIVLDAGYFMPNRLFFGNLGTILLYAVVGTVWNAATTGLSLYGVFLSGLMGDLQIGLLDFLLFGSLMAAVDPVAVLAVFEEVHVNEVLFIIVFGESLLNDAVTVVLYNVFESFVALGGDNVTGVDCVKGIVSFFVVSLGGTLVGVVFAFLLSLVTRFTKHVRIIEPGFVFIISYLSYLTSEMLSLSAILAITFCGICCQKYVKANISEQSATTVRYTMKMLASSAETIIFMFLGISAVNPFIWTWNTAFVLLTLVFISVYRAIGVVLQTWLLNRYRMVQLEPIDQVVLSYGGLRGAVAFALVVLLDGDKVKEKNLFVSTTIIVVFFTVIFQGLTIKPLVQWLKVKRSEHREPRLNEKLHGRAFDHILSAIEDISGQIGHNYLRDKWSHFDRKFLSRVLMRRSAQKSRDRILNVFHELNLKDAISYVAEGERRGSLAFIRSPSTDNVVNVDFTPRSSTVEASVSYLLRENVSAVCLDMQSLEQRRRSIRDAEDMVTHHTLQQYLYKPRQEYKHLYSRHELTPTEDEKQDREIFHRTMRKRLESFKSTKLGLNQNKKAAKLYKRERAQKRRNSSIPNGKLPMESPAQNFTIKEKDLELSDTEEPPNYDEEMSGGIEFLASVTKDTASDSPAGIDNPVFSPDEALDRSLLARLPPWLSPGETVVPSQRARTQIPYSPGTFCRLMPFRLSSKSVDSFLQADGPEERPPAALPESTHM

For test [1], the target named is NHE3 (UniProt P48764). Kind of test: Cell-based NHE3 activity under transient conditions (BCECF-AM intracellular pH, FLIPR). The conditions noted are these: read-out: Cell-based NHE3 inhibition IC50 (uM) under transient conditions, embodiment compounds, opossum kidney cells expressing NHE3, tested form: HCl. An excerpt: (§1) Opossum kidney (OK) cells were obtained from ATCC and cultured and expanded according to its instructions. OK monoclonal stable cell lines expressing the Rat NHE3 (Gene Bank registration number: M85300) protein and OK monoclonal stable cell lines expressing the Human NHE3 (Gene Bank registration number: NM_004174.1) protein were constructed by lentivirus infection.
The general procedure of the cell-based NHE3 activity experiments under transient conditions (transient inhibition) was based on an adaptation method of the pH-sensitive dye method originally reported by Tisen (Proc. Natl. Acad. Sci. USA) (1984) 81(23):7436-7440) to measure rat NHE3-mediated Na+-dependent reverse H+ transport, and was optimized according to the instructions “Measuring Intracellular pH With the FLIPR and FLIPR 384 Fluorometric Imaging Plate Reader Systems” published by Molecular Devices. The specific method was: Rat NHE3 OK monoclonal cells or Human NHE3 OK monoclonal cells were inoculated into 384-well plates and grew overnight. […] NHE3-mediated pH sensitization in cells was normalized by addition of containing 0.4 mM amiloride (EIPA) and […] test compound or Na-HEPES buffer (100 mM NaCl, 50 mM HEPES, 10 mM glucose, 5 mM KCl, 2 mM CaCl2), 1 mM MgCl2, pH 7.4) and monitoring of BCECF-AM fluorescence at λem 535 nm excitated by λex 440 nm and λex 490 nm respectively. […]

For test [2], the target named is NHE3 (UniProt P48764). Put plainly: Cell-based NHE3 activity under persistent conditions (60 min pre-incubation, compound removed). The conditions noted are these: read-out: Cell-based NHE3 inhibition IC50 (uM) under persistent conditions, opossum kidney cells expressing NHE3, tested form: HCl.
Description: as §1
The general procedure of the cell-based NHE3 activity assay under persistent conditions (persistent inhibition) was: Rat NHE3 OK monoclonal cells or Human NHE3 OK monoclonal cells were inoculated into 384-well plates and grew overnight. The medium was aspirated from the wells and the cells were washed twice with FLIPR buffer (Hank's BSS 1×, 20 mM HEPES, 1% BSA) followed by the addition of Na-HEPES buffer containing […] test compound (100 mM NaCl, 50 mM HEPES, 10 mM glucose, 5 mM KCl, 2 mM CaCl2, 1 mM MgCl2, pH 7.4) and incubated for 60 minutes at room temperature. […] Ratio=fluorescence value (λex 490 nm)/fluorescence value (λex 440 nm) was set, the average value of the Ratio difference between the end time and the start time between the duplicate wells was calculated, the average value and the concentration value of the compound were drawn, and the dose-response-inhibition (four parameters) equation was used to estimate EC50 value by GraphpadPrism.

By IC50 is commonly meant the point on the concentration scale where inhibition reaches its midpoint. Take `CN1Cc2c(Cl)cc(Cl)cc2C(c2ccc3cn(CCOCCOCCOCCNC(=O)NCCCCNC(=O)NCCOCCOCCOCCn4cc5ccc(C6CN(C)Cc7c(Cl)cc(Cl)cc76)cc5n4)nc3c2)C1` (centres unmarked): the IC50 worked out at 0.16 µM in test [1] and 0.02 µM in test [2].
